Measured values taken from patent US10869933B2, “Oligomer-phenothiazine conjugates” (Nektar Therapeutics, priority 2009, dated 2020).

Columns and labels:
[1] = aqueous pKa, 25° C., average of three measurements
[2] = Partition Log P, average of three measurements
Brain:plasma ratio = settings: rats, 5 mg/kg intravenously, one hour after injection; brain (ng/g) / plasma (ng/mL)

## mPEG9-N-promethazine
[1]
  pKa: 8.296
[2]
  LogP: 2.540
Brain:plasma ratio
  Brain/plasma ratio Mean: 0.080
